## scFv variants of Ab-95 (light chain) against a SARS-CoV-2 spike peptide

Source: Engelhart et al. 2022 (doi:10.1038/s41597-022-01779-4), MIT Lincoln Laboratory and A-Alpha Bio; data file from the FLAb repository.

All variants were tested on one target, the spike HR2 peptide PDVDLGDISGINAS (SARS-CoV-2).

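The parent was found by panning a naive human phage display library on the peptide. Variants in AAYL52 differ from the parent at up to three CDR positions; double and triple changes were sampled at random. The scFvs were displayed on barcoded MATa yeast, the peptide on MATalpha yeast. Mating (16 h, 30 °C) was followed by selection of diploids and sequencing of their barcodes. Each replicate has its own calibration line, from reference interactions of the BCL2 family. Mating was done three times.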

The variants keep the heavy chain, the linker and the frameworks of Ab-95 (scFv order VH, the linker GGGGSGGGGSGGGGS, VL).
VH: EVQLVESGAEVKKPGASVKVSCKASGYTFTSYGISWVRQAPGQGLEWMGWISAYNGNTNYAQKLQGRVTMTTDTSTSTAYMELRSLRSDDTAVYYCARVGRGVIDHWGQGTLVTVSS
VL: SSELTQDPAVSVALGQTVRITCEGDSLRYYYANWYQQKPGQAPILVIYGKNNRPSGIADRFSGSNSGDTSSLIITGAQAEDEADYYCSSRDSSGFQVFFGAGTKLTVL

Changes read parent residue, position, new residue, counted from the first residue of the VL shown.
Values are log10 of the apparent Kd in nM; lower means stronger binding.
Replicates are averaged; those with no signal do not enter the mean.
"ND" means that the variant was in the library but no mating with the target was seen in that replicate; the authors take this as a sign of poor binding, and no number exists.
The list is sorted by this average, lowest first, undetected variants last.
Background: pairings of library AAYL52 with three empty control strains gave a value in 28% of cases (median 3.91, 5th percentile 2.90). Values in that range, when seen in few replicates, are hard to tell from nonspecific mating.

With Y30P/S55M/F98Q the result was 1.79, 1.65, 1.11 (mean 1.52).
With Y29K/K50Q/V97N the result was 2.06, 1.79, 1.61 (mean 1.82).
With Y30E/D91G the result was 1.99, 2.08, 1.54 (mean 1.87).
With Y29M/R90P/V97Q the result was 2.30, 3.24, 2.12 (mean 2.55).
With S26W/P54G/S92M the result was 2.80, 2.16, 2.94 (mean 2.63).
With Y29N/P54Y/F95R the result was 2.55, 3.20, 2.22 (mean 2.66).
With R90H/S93F/F98C the result was 2.98, 2.78, ND (mean 2.88).
With S92T/F98M the result was 2.57, 3.68, 2.49 (mean 2.91).
With G24V/K50N/S89F the result was 2.98, 2.80, 3.13 (mean 2.97).
With Y30E/S88L/G94N the result was ND, 3.05, ND.
With G24I/F95V/V97Q the result was ND, 2.78, 3.48 (mean 3.13).
With Y30I/N52G/D91M the result was 3.58, 3.00, 2.80 (mean 3.13).
With S89N/S93I/V97G the result was 3.23, 3.58, ND (mean 3.41).
With A32T/R90L/Q96D the result was 3.45, ND, ND.
With K50S/S55N/F98C the result was 2.52, 4.39, 3.76 (mean 3.56).
With E23N/Y29K/R90P the result was 3.68, 3.47, ND (mean 3.57).
With D25C/F98G the result was ND, 3.58, ND.
With R28K/D91Y the result was 3.59, ND, ND.
With E23F/K50H/N52D the result was 3.91, 3.37, 4.05 (mean 3.78).
With S26K/R28C/G94E the result was 3.35, 3.53, 4.64 (mean 3.84).
With E23R/Y29F/R90E the result was ND, 5.52, 2.42 (mean 3.97).
With K50V/S88R/V97Q the result was 5.16, 3.35, 3.61 (mean 4.04).
With L27N/R90L/G94S the result was 3.94, 5.28, 3.35 (mean 4.19).
With Y30P/N33R/Q96A the result was 4.18, ND, 4.50 (mean 4.34).
With S55L/Q96Y the result was 3.53, 5.23, ND (mean 4.38).
With G24E/D25E/R90I the result was 4.57, ND, ND.
With L27W/S55R the result was ND, 4.79, ND.
With D25Q/S26I/V97Q the result was 4.53, 5.56, ND (mean 5.05).
With G24R/N33T/S89K the result was 5.29, ND, ND.
With L27H/P54S/S55C the result was 5.53, ND, ND.
With A32S/G49C/S89C the result was ND, 5.81, ND.
With A32D/N33T/G94W the result was ND, ND, ND.
With G49M/S88I the result was ND, ND, ND.
With R90P/G94A/F98T the result was ND, ND, ND.

From the list, the first 3 with no signal in any replicate:

changes	log10 Kd (nM) by replicate	mean, log10 nM
A32D/N33T/G94W	ND, ND, ND	ND
G49M/S88I	ND, ND, ND	ND
R90P/G94A/F98T	ND, ND, ND	ND